Curated experimental data: water solubility values

Source: data files of OPERA 2.9 (Mansouri et al.), github.com/kmansouri/OPERA.

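The numbers are reported measurements, compiled and curated for the OPERA QSAR suite. A listed value is a point estimate from one report or more. Conditions of the individual experiments are not part of the data. A value may pool stereoisomers or salt forms, and the file does not say which form was measured. Unmarked limits or estimates from the upstream databases cannot be ruled out.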

Solubility in water is on a log10 molar scale (set defined at 25 °C).

For CC1CCC(C(C)C)c2cnc(NS(=O)(=O)c3ccc(N)cc3)nc21 (configuration not stated) the data give log S -4.177 (log10 mol/L).
For O=[N+]([O-])c1ccccc1-c1ccc(Cl)cc1 [4'-Chloro-2-nitrobiphenyl] the data give log S -4.937 (log10 mol/L).
For Clc1cc(Cl)c(Oc2ccc(Cl)c(Cl)c2)c(Cl)c1 [2,3',4,4',6-Pentachlorodiphenyl ether] the data give log S -7.62 (log10 mol/L).
For O=C1COCCN1c1ccc([N+](=O)[O-])cc1 [4-(4-nitrophenyl)morpholin-3-one] the data give log S -2.606 (log10 mol/L).
For COc1cc(OC)nc(Oc2cccc(Oc3nc(OC)cc(OC)n3)c2C(=O)ON=C(c2ccccc2)c2ccccc2)n1 [Pyribenzoxim] the data give log S -5.24 (log10 mol/L).
For COc1cc(OC)nc(NC(=O)NS(=O)(=O)Nc2ccccc2C(=O)N(C)C)n1 [Orthosulfamuron] the data give log S -2.83 (log10 mol/L).
For CCOC(=O)[C@H](CCc1ccccc1)N[C@@H](C)C(=O)N1Cc2ccccc2C[C@H]1C(=O)O [Quinapril] the data give log S -4.713 (log10 mol/L).
For CNc1ncnc2[nH]cnc12 [N-Methyl-9H-purin-6-amine] the data give log S -2.102 (log10 mol/L).
For C=C(C)CCC the data give log S -3.03 (log10 mol/L).
For CCCCNC(=O)NS(=O)(=O)c1ccc(N)cc1 [Carbutamide] the data give log S -2.18 (log10 mol/L).
For C[C@H](CCCNCC(=O)O)[C@H]1CC[C@H]2[C@@H]3CC[C@@H]4C[C@H](O)CC[C@]4(C)[C@H]3C[C@H](O)[C@]12C [Glycodeoxycholic acid] the data give log S -5.208 (log10 mol/L).
For CC(=O)OC/C=C(/C)CCC=C(C)C [cis-3,7-Dimethyl-2,6-octadien-1-yl acetate] the data give log S -3.794 (log10 mol/L).
For COc1ccccc1NC(=O)C(N=Nc1ccccc1C(=O)O)C(C)=O (configuration not stated) the data give log S -4.228 (log10 mol/L).
For CC(=O)n1ncc2c(=O)[nH]cnc21 [1-Acetyl-1,5-dihydro-4H-pyrazolo[3,4-d]pyrimidin-4-one] the data give log S -2.378 (log10 mol/L).
For CCCCOCCOC(=O)c1ccccc1C(=O)OCCOCCCC [Bis(2-butoxyethyl) phthalate] the data give log S -3.087 (log10 mol/L).
For CCCCCCCCC(C)C=O (configuration not stated) [2-Methyldecanal] the data give log S -4.027 (log10 mol/L).
For CC(=O)OCC(=O)[C@H]1[C@H](C)C[C@H]2[C@@H]3C[C@H](F)C4=CC(=O)CC[C@]4(C)[C@H]3CC[C@@]21C the data give log S -4.352 (log10 mol/L).
For OB(O)c1ccc2cc(O)ccc2c1 [(6-Hydroxynaphthalen-2-yl)boronic acid] the data give log S -2.241 (log10 mol/L).
For CC1=COC(=O)C2C(C)CCC12 (configuration not stated) the data give log S -2.03 (log10 mol/L).
For C[C@]1(COC(=O)C2CC2)[C@@H]2C[C@H](O)[C@@]3(C)Oc4cc(-c5cccnc5)oc(=O)c4[C@H](O)[C@@H]3[C@@]2(C)CC[C@@H]1OC(=O)C1CC1 [Afidopyropen] the data give log S -4.374 (log10 mol/L).
For CCCOc1ccc([C@H]2CC[C@H]([C@H]3CC[C@H](CCC)CC3)CC2)c(F)c1F the data give log S -6.624 (log10 mol/L).
For Brc1c(Br)c(Br)c(CCc2c(Br)c(Br)c(Br)c(Br)c2Br)c(Br)c1Br [1,1'-Ethane-1,2-diylbis(pentabromobenzene)] the data give log S -9.13 (log10 mol/L).
For OCCC(F)(F)C(F)(F)C(F)(F)C(F)(F)C(F)(F)C(F)(F)F [6:2 Fluorotelomer alcohol] the data give log S -4.32 (log10 mol/L).
For CCN(C(=S)[S-])c1ccccc1.CCN(C(=S)[S-])c1ccccc1.[Zn+2] [Zinc bis[ethyl(phenyl)carbamodithioate]] the data give log S -6.816 (log10 mol/L).
For CC(=O)N(CCN(C(C)=O)C(C)=O)C(C)=O [Tetraacetylethylenediamine] the data give log S -2.279 (log10 mol/L).
For CC(C)(C)Nc1nc(N)nc(Cl)n1 [Desethylterbutylazine] the data give log S -2.79 (log10 mol/L).
For Clc1ccc(Oc2cc(Cl)c(Cl)c(Cl)c2Cl)cc1Cl the data give log S -8.78 (log10 mol/L).
For CC(C)=CCC/C(C)=C/CC/C(C)=C/C=O [(E,E)-Farnesal] the data give log S -5.712 (log10 mol/L).
For CC(C)CC(C)(O)CCC(C)(O)CC(C)C (configuration not stated) [2,4,7,9-tetramethyldecane-4,7-diol] the data give log S -2.149 (log10 mol/L).
For C=CCOC(=O)C1CCCCC1C(=O)OCC=C (configuration not stated) [Diprop-2-en-1-yl cyclohexane-1,2-dicarboxylate] the data give log S -3.361 (log10 mol/L).
For CC1CN(c2ccccc2)NC1=O (configuration not stated) [4-Methyl-1-phenylpyrazolidin-3-one] the data give log S -2.368 (log10 mol/L).
For FC(F)C(F)(F)C(F)(F)C(F)(F)C(F)(F)C(F)(F)F [1H-Perfluorohexane] the data give log S -5.329 (log10 mol/L).
For C=CC(C)(CCC=C(C)C)OC(C)OCC (configuration not stated) [1,6-Octadiene, 3-(1-ethoxyethoxy)-3,7-dimethyl-] the data give log S -3.976 (log10 mol/L).
For O=C(O)c1ccccc1C(=O)OCCO [2-[(2-Hydroxyethoxy)carbonyl]benzoic acid] the data give log S -1.482 (log10 mol/L).
For NC(=O)CC(O)C(=O)O (configuration not stated) [4-Amino-2-hydroxy-4-oxobutanoic acid] the data give log S -0.249 (log10 mol/L).
For CC(C)=NNC(=O)Nc1ccc([N+](=O)[O-])cc1 [Acetone, 4-(p-nitrophenyl)semicarbazone] the data give log S -3.595 (log10 mol/L).
For FC(F)(F)c1ccccc1 [Benzotrifluoride] the data give log S -2.916 (log10 mol/L).
For c1ccc(CN2CCN(Cc3ccccc3)CCN(Cc3ccccc3)CCN(Cc3ccccc3)CC2)cc1 [1,4,7,10-Tetrabenzyl-1,4,7,10-tetraazacyclododecane] the data give log S -5.028 (log10 mol/L).
For CCN1CCC[C@H]1CNC(=O)c1c(OC)ccc(Br)c1OC [Remoxipride] the data give log S -3.466 (log10 mol/L).
For CCOc1ccccc1NC(=O)C(=O)Nc1ccc(CCCCCCCCCC(C)C)cc1 the data give log S -6.099 (log10 mol/L).
For CC(C)(NC(=O)NCc1ccccc1Cl)c1ccccc1 [Cumyluron] the data give log S -5.48 (log10 mol/L).
For Cc1ccc(Cl)c(Nc2ccccc2C(=O)O)c1Cl [Meclofenamic acid] the data give log S -4.908 (log10 mol/L).
For CCCC(C)C(=O)OCC (configuration not stated) [Ethyl 2-methylpentanoate] the data give log S -2.49 (log10 mol/L).
For CC12CCCC(C)(CC1)C2=NO [1,5-Dimethylbicyclo[3.2.1]octan-8-one oxime] the data give log S -3.074 (log10 mol/L).